# Data reported in ChEMBL document CHEMBL1765012, “Novel interactions of fluorinated nucleotide derivatives targeting orotidine 5'-monophosphate decarboxylase” (J Med Chem, 2011).
# Sequences of proteins named here, by UniProt entry; tags and fusion partners are left off. A change or cut given only in a name is not applied to a line headed by its entry.
# UniProt O26232: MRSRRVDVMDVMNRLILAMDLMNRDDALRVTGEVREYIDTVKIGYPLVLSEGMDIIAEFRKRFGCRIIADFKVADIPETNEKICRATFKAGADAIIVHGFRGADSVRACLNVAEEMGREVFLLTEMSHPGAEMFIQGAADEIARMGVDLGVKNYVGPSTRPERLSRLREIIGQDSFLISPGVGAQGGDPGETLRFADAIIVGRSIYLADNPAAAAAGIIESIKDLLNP
# Biological target: Orotidine 5'-phosphate decarboxylase (Methanobacterium thermoautotrophicum) (UniProt O26232)
# Conditions: Methanothermobacter thermautotrophicus
row,Kinact,SMILES
1,4 h⁻¹,[N-]=[N+]=Nc1cc(=O)[nH]c(=O)n1[C@@H]1O[C@H](CP(=O)(O)O)[C@@H](O)[C@H]1O
2,612 h⁻¹,[N-]=[N+]=Nc1cn([C@@H]2O[C@H](CP(=O)(O)O)[C@@H](O)[C@H]2O)c(=O)[nH]c1=O
